Protein sequences, listed by entry. Tags and fused reporters are not part of them. Chains listed by the source or under a name are the forms on record and can include a tag or linker. Residues count along the entry.
UniProt P51449, 258-518: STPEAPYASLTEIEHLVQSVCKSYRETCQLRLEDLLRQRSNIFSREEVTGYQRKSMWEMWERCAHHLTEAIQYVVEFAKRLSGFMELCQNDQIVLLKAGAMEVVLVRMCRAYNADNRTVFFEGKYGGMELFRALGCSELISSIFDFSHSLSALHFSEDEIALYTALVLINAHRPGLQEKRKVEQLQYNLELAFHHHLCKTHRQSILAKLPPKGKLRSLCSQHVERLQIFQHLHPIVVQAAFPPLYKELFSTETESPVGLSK
UniProt P51449, other isoform, or with tags, fused parts or gaps: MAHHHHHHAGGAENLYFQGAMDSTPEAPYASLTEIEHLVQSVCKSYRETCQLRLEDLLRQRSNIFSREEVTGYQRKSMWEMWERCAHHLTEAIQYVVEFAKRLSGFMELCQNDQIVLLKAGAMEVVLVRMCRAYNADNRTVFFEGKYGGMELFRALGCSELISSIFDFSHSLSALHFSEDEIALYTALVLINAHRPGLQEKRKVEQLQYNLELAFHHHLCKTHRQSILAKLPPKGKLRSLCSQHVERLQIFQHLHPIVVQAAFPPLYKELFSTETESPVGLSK

In US10201546B2, “Quinolinyl modulators of RORγt” (Janssen Pharmaceutica NV, priority 2013, dated 2019):

Assays:
[1] = molecular target: human RORγt LBD fused to the DNA binding domain of the GAL4 protein (Homo sapiens (Human), UniProt P51449); test: RORγt (LBD) reporter assay in HEK293T cells; format: cell-based
[2] = molecular target: human RORγt ligand binding domain (RORγt LBD) (Homo sapiens (Human), UniProt P51449); test: RORγt ThermoFluor assay (thermal shift, binding affinity Kd)

| SMILES | IC50 [1] [nM] | Kd [2] [nM] |
| --- | --- | --- |
| COc1nc2ccc(C(O)(c3cnnn3C)c3cnc(C)n3C)cc2c(Cl)c1CN1CCC(C(F)(F)F)CC1 (single isomer, unassigned) [Example 106b, (4-Chloro-2-methoxy-3-((4-(trifluoromethyl)piperidin-1-yl)methyl)quinolin-6-yl)(1,2-dimethyl-1H-imidazol-5-yl)(1-methyl-1H-1,2,3-triazol-5-yl)methanol] | 17 | – |
| COc1nc2ccc(C(O)(c3ccc(C(F)(F)F)nc3)c3cncn3C)cc2c(Cl)c1CN1CC(C(F)(F)F)C1 (single isomer, unassigned) [Example 120b, (4-Chloro-2-methoxy-3-((3-(trifluoromethyl)azetidin-1-yl)methyl)quinolin-6-yl)(1-methyl-1H-imidazol-5-yl)(6-(trifluoromethyl)pyridin-3-yl)methanol] | – | 130 |
| COc1nc2ccc(C(O)(c3ccc(C(F)(F)F)nc3)c3cncn3C)cc2c(Cl)c1CN1CC(C(F)(F)F)C1 (single isomer, unassigned) [Example 120c, (4-Chloro-2-methoxy-3-((3-(trifluoromethyl)azetidin-1-yl)methyl)quinolin-6-yl)(1-methyl-1H-imidazol-5-yl)(6-(trifluoromethyl)pyridin-3-yl)methanol] | – | 14 |
| COc1nc2ccc(C(O)(c3cnnn3C)c3cnc(C)n3C)cc2c(Cl)c1CN1CCC(C(F)(F)F)CC1 (single isomer, unassigned) [Example 106c, (4-Chloro-2-methoxy-3-((4-(trifluoromethyl)piperidin-1-yl)methyl)quinolin-6-yl)(1,2-dimethyl-1H-imidazol-5-yl)(1-methyl-1H-1,2,3-triazol-5-yl)methanol] | 17 | – |
| COc1nc2ccc(C(O)(c3ccc(C)nc3C)c3cnnn3C)cc2c(Cl)c1OC1CCN(C)CC1 (single isomer, unassigned) [Example 65b, {4-Chloro-2-methoxy-3-[(1-methylpiperidin-4-yl)oxy]quinolin-6-yl}(2,6-dimethylpyridin-3-yl)(1-methyl-1H-1,2,3-triazol-5-yl)methanol] | – | 5300 |
